# Yeast mating assay 1: variants of the scFv Ab-14

The measurements come from Engelhart et al. 2022 (doi:10.1038/s41597-022-01779-4) through the FLAb antibody collection.

Target: peptide PDVDLGDISGINAS, taken from heptad repeat 2 (HR2) of SARS-CoV-2 spike.

The variants keep the heavy chain, the linker and the frameworks of Ab-14 (scFv order VH, a 15-residue (Gly4Ser)3 linker, VL).
VH: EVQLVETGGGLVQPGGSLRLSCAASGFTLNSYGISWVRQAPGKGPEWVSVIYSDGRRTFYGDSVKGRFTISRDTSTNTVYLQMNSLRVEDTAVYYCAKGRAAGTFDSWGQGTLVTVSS
VL: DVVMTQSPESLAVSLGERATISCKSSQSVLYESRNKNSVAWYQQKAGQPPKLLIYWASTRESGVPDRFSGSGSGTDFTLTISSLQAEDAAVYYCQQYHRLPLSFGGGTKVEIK

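Phage display of a naive human antibody library on the peptide gave the parent. Variants in AAYL50 differ from the parent at up to three CDR positions; double and triple changes were sampled at random. AlphaSeq pools MATa yeast showing the antibodies with MATalpha yeast showing the peptide. The frequency of each diploid, read from paired DNA barcodes, reflects how well the two displayed proteins bind. The ratio of observed to expected reads was calibrated, replicate by replicate, on BCL2-family standards whose Kd was known from biolayer interferometry. Each pool was mated in three replicate cultures.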

Variants are written as CDR1, CDR2 and CDR3 of the light chain (limits as in the source). Parent: KSSQSVLYESRNKNSVA, WASTRES, QQYHRLPLS.
All variants listed here change S62 of the VL, counted from its first residue.
Numbers give log10(Kd / nM), so 0 is 1 nM and 3 is 1 µM. Smaller is tighter.
A mean of the replicates is given; it leaves out those without a signal.
Where no diploid with the target was found in that replicate, the entry reads "nd": below detection, most likely a poor binder, though not proof of it.
In this assay the parent's reference entry averaged 0.65; its copy inside this library read 1.68.
Three control strains display no target. For library AAYL50, 18% of the pairings with them gave a signal, with a median of 4.19 and one signal in twenty below 2.99, so weak values seen in few replicates may be background.

CDR-L1,CDR-L2,CDR-L3,log10 Kd (nM) by replicate,"mean, log10 nM"
KSLQSVLYESRNKNSVA,WASTRQQ,QQYHRLPLS,1.40 / 1.72 / 1.86,1.66
KSSQSVLYESRNKNSVA,WASTRDK,QQYHILPLS,0.93 / 1.18 / 1.07,1.06
NSSQSVLYESRNKNSVA,WASTREF,QQYHRMPLS,3.97 / 3.56 / 4.24,3.92
KSSQSVLYESRNKNSVA,WASTAET,SQYHRLPLS,nd / nd / nd,nd
KSSQSVLYESRNKNSVA,WLSTRED,QQYHRLYLS,nd / nd / nd,nd
KSSQSVLYEERNKNSVA,WASTREI,QQYHRLPLS,0.44 / 0.77 / 0.50,0.57
KYSQSVLYESRNYNSVA,WASTREE,QQYHRLPLS,0.55 / 0.82 / 0.70,0.69
KSSQSVLMESRNKNSVE,WASTREN,QQYHRLPLS,nd / nd / nd,nd
KSSQSVLYESSNKNSVA,WASTRER,QQYHFLPLS,nd / nd / nd,nd
KSSQVVLYESRNKNSVA,WAATREW,QQYHRLPLS,4.44 / nd / nd,4.44
KSSQSVLYESYNKNSVA,WASTRED,QQYHPLPLS,nd / nd / nd,nd
KSSQSVLYESRNKNSVA,WASTREN,QQYHRLPYS,4.50 / nd / nd,4.50
KSSQSVLYESRNKNSVA,WAPTREN,QQEHRLPLS,nd / 4.49 / 5.40,4.94
KSSQSVLYESRNKNSVA,WLSTREC,LQYHRLPLS,nd / nd / 3.27,3.27
KSHQSVLYESRNKNSTA,WASTREC,QQYHRLPLS,nd / nd / nd,nd
KSSQSVLYESRNKNSVA,WASTREF,QQWHRQPLS,1.10 / 1.43 / 1.65,1.39
KSSQSVLYESRNKNSVA,WASTREM,QQYHRLPRS,1.38 / 1.44 / 1.44,1.42
KSSQSVLYESRNKNSVA,WADTRET,QQYHRLCLS,nd / nd / nd,nd
KSSQSVLDESRNKNSVA,WASTREV,LQYHRLPLS,nd / nd / nd,nd
KSSQSVLNESRNKNSVA,WASTREH,QQYHRNPLS,nd / nd / nd,nd
KSSQSVLYSSRNFNSVA,WASTREI,QQYHRLPLS,nd / nd / nd,nd
KSSQSVLRESDNKNSVA,WASTREV,QQYHRLPLS,-0.02 / 0.31 / 0.09,0.12
KSSQSVLYESRNKNSVA,WMSTREI,QQNHRLPLS,nd / nd / nd,nd
KSSQSVLYESRNKNSVA,WASTNEV,QQYHRLPYS,1.78 / 1.62 / 2.19,1.86
KSSQSVLYESRNENSVA,WASTREG,QQYHRVPLS,1.17 / 1.42 / 1.37,1.32
MSSQSDLYESRNKNSVA,WASTREL,QQYHRLPLS,0.47 / 0.62 / 0.64,0.58
KSSQSVLYESRNKPSVA,WASTREV,QQYHRLPLS,1.06 / 1.35 / 1.53,1.31
KSSQSVLYESRNKNSVP,WASTREP,QQYHRLKLS,nd / nd / nd,nd
KSSQSVLYESDNKNSVA,WAMTREY,QQYHRLPLS,0.87 / 0.81 / 0.83,0.84
KSSQSVLYESRNKNSVA,WASYREP,QQYHYLPLS,1.33 / 1.27 / 1.36,1.32
KSSQSVLYESDNKNSVA,WASTREA,QQYHRLPLS,0.01 / 0.22 / 0.04,0.09
KSSQSVLYESRNKNSVA,WASTREM,QQCHRLPLC,2.35 / 2.62 / 2.94,2.64
KSSQSVLYESRNKQSVA,WASTREN,QQYHRNPLS,nd / nd / nd,nd
KSSFSVLYESRNKNSVA,WASLREN,QQYHRLPLS,1.08 / 1.19 / 1.04,1.10
KSSQSVLYESRNKTRVA,WASTREH,QQYHRLPLS,6.23 / 5.44 / nd,5.84
KSSQHVLYESRNKNSVA,WASTRED,QQYHRLTLS,0.57 / 1.05 / 0.83,0.82

The 2 strongest on average among those seen in every replicate, once more:

{"CDR-L1": "KSSQSVLYESDNKNSVA", "CDR-L2": "WASTREA", "CDR-L3": "QQYHRLPLS", "log10 Kd (nM) by replicate": "0.01 / 0.22 / 0.04", "mean, log10 nM": "0.09"}
{"CDR-L1": "KSSQSVLRESDNKNSVA", "CDR-L2": "WASTREV", "CDR-L3": "QQYHRLPLS", "log10 Kd (nM) by replicate": "-0.02 / 0.31 / 0.09", "mean, log10 nM": "0.12"}